Data taken from US20160184322A1 (priority 2013, published 2016).

Test system: P-glycoprotein
Experiment: P-glycoprotein protein abundance in penumbral region of injured brain (FIG. 6)
Format: in vivo, rodents
Settings: 72 hours post-injury, compared to vehicle and sham, p<0.05

Row | SMILES | protein abundance of P-glycoprotein (PGP) in the penumbral region
1 | CC(=O)[C@H]1CC[C@H]2[C@@H]3CCC4=CC(=O)CC[C@]4(C)[C@H]3CC[C@]12C [Prog, progesterone] | increase
2 | CC(=O)[C@@H]1CC[C@@H]2[C@H]3CCC4=CC(=O)CC[C@@]4(C)[C@@H]3CC[C@]21C [ent-Prog, ent-progesterone] | increase
